# scFv variants of Ab-14 (heavy chain) against a SARS-CoV-2 spike peptide

Values reported by Li et al. 2023, doi:10.1038/s41467-023-39022-2 (FLAb copy).

The target is the same throughout: PDVDLGDISGINAS, from the HR2 region of SARS-CoV-2 spike.

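The parent was found by panning a naive human phage display library on the peptide. These sequences belong to a second round, designed from the earlier measurements on random variants of the parent. Several design methods are mixed in this list. Affinity was read by AlphaSeq, a pooled yeast mating assay with surface-displayed partners. Mating (16 h, 30 °C) was followed by selection of diploids and sequencing of their barcodes. A regression on co-assayed BCL2-family reference pairs converts the normalised counts of each replicate to an apparent Kd. There are six technical replicates.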

Parent scFv Ab-14: VH joined to VL by the linker GGGGSGGGGSGGGGS. Changes lie in the heavy chain CDRs alone.
VH: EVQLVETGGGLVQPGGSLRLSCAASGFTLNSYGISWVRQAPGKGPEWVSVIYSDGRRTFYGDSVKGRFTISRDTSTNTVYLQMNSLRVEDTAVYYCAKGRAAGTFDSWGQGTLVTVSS
VL: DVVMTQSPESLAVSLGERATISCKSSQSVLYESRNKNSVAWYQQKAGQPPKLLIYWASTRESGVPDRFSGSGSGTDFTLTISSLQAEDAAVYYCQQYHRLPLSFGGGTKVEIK

Each variant is given by its three heavy chain CDRs, as the data file delimits them; those of the parent are GFTLNSYGIS, VIYSDGRRTFYGDSVK, GRAAGTFDS. This list holds designs with more than six substitutions. Kd is apparent (estimated from mating counts) and averaged on the log scale over replicates with a signal. Smaller is tighter. A pair that was not seen in any replicate is written "nd"; this usually means weak binding, but a binder can also be missed. Values of this round are not directly comparable with the first-round values of the same sequences.

| CDR-H1 | CDR-H2 | CDR-H3 | Kd (apparent) | seen in |
|---|---|---|---|---|
| GFDLNEYGIS | VIYADGKRTAYADDVK | GNQAGTFDI | 1.0 nM | 6 of 6 |
| GFDLNEYGIS | VIYADGRRTQYIDSVK | GEVAGTFDS | 990 pM | 6 of 6 |
| GFDLNEYGIS | VIYADGRRYHYQDSVK | GGVVGSVLY | nd | 0 of 6 |
| GFDLDEYGIS | VIYADGKRTAYIDSVK | GENAGTFDV | 1.5 nM | 6 of 6 |
| GFDLSEYGIS | VIYADGRRTFYTDSVK | GEIAGTFDE | 280 pM | 6 of 6 |
| GFDLDEYGIS | VIYADGKRTAYADKVK | GEVAGTFDV | 870 pM | 6 of 6 |
| GFDLNEYGIS | VIYADGKRTAYSDSVK | GETAGTFDT | 2.5 nM | 6 of 6 |
| GFDLEEYGIS | VIYADGMRTAYSDSVK | GQNAGTFDV | 950 pM | 6 of 6 |
| GFNLEEYGIS | VIYADGFRASYQNKVK | GQDGSVMLD | nd | 0 of 6 |
| GFDLDEYGIS | VIYADGKRTAYSDSVK | GNNAGTFDV | 310 pM | 6 of 6 |
| GFDLDEYGIS | VIYADGMRTVYADSVK | GNTAGTFDI | 260 pM | 6 of 6 |
| GFDLDEYGIS | VIYADGMRTAYADSVK | GETAGTFDI | 1.3 nM | 6 of 6 |
| GFDLNEYGIS | VIYADGMRTQYIDSVK | GNAAGTFDE | nd | 0 of 6 |
| GFDLNEYGIS | VIYADGQRTFYADSVK | GEVAGTFVS | 730 pM | 3 of 6 |
| GFDLNEYGIS | VIYADGRRTFYQDSVK | GQIAGTFDQ | 520 pM | 6 of 6 |
| GFDLNEYGIS | VIYADGVRTFYVDSVK | GVNAGTFDS | 26 nM | 1 of 6 |
| GFDLDEYGIS | VIYADGKRTAYVDSVK | GNTAGTFDV | 160 pM | 6 of 6 |
| GFDLNEYGIS | VIYADGRRTFYADSVK | GQLAGTFNV | 280 pM | 6 of 6 |
| GVDIDEYGIS | VIYADGIRTFYIDKVK | GNVGGQFDM | nd | 0 of 6 |
| GFNLDEYGIS | VIYADGRRTFYADSVK | GEIAGTFDT | 660 pM | 6 of 6 |
| GFDLNEYGIS | VIYADGMRTAYVDSVK | GNTAGTFDL | 96 pM | 6 of 6 |
| GFDLNEYGIS | VIYADGMRKVYADSVK | GQNAGTFDV | 1.7 nM | 6 of 6 |
| GFDLNEYGIS | VIYADGKRTFYADSVK | GETAGTFDQ | nd | 0 of 6 |
| GFDLTEYGIS | VIYADGKRSMYTNDVK | GELGLGFVI | nd | 0 of 6 |
| GFNLDEYGIS | VIYADGYRRMYIDAVK | GMNSGFGGT | nd | 0 of 6 |
| GFDLNEYGIS | VIYADGSRTAYADSVK | GANAGTFDI | 280 pM | 6 of 6 |
| GKGLDEYGVS | VIYADGVRKSYADDVK | GGIAGTFLY | 180 nM | 6 of 6 |
| EFDLNEYGVS | VIYADGHRTFYADHVK | GQEAGFFFD | 11 nM | 6 of 6 |
| GFDLNEYGIS | VIYADGSRTAYADDVK | GNVAGTFDM | 350 pM | 6 of 6 |
| GFDLDEYGIS | VIYADGLRQVYQDNVK | GVGFTTFID | nd | 0 of 6 |
| GFDLNEYGIS | VIYADGRRTQYIDSVK | GEAAGTFDM | 1.2 nM | 6 of 6 |
| GFDLNEYGIS | VIYADGRRTFYADSVK | GQHAGTFTL | 840 pM | 6 of 6 |
| EFDLNDYGIS | VIYADGLRTAYVTNFK | GINAGTFTS | nd | 0 of 6 |
| GFDLNEYGIS | VIYADGKRTSYKDSVK | GEAAGTFDV | 240 pM | 6 of 6 |
| GFDIDEYGIS | VIYADGRRTFYADSVK | GNNAGTFDS | 390 pM | 6 of 6 |
| GFDLGEYGIS | VIYADGQRKSYADSVK | GQSSVYMTA | nd | 0 of 6 |
| GFDLEEMGVS | VIYADGIRFAYAQDVK | GQAAGAFDL | 1.4 µM | 1 of 6 |
| GFDLNEYGIS | VIYADGMRTVYADDVK | GQNAGTFDV | 310 pM | 6 of 6 |
| GFDLNEYGIS | VIYADGKRTAYTDSVK | GETAGTFDQ | 540 pM | 6 of 6 |
| GFTLNDYGIG | VIYSDTRRTQYIDSVK | GRAAGTENS | 120 nM | 1 of 6 |
| GFDLNEYGIS | VIYADGRRTAYADNVK | GQVAGTFDV | 390 pM | 6 of 6 |
| GFDLDEYGIS | VIYADGMRTAYADDVK | GKNAGTFDV | 890 pM | 6 of 6 |
| GFDLDEYGIS | VIYADGMRTAYSDSVK | GQNAGTFDV | 310 pM | 6 of 6 |
| GFDLNEYGIS | VIYADGRRTFYADSVK | GEIAGTFKV | 410 pM | 6 of 6 |
| GQDLQEYGVS | VIYADGKRTAYADSFK | GKSLGLIFV | nd | 0 of 6 |
| GMGLDEYGIS | VIYADGMRTSYDNSVK | GAWAGTFDE | nd | 0 of 6 |
| GFDLNEYGIS | VIYADGVRKAYADSVK | GNVAGTFDI | 82 pM | 6 of 6 |
| GFDLNEYGIS | VIYADGRRTQYIDSVK | GNVAGTFDS | 1.4 nM | 6 of 6 |
| GFDLNEYGIS | VIYADGMRTSYADSVK | GNQAGTFDI | 390 pM | 6 of 6 |
| GFDLNEYGIS | VIYADGSRTAYADSVK | GSNAGTFDM | 1.1 nM | 6 of 6 |
| GFDLAEYGIS | VIYADGSRVAYNQNVK | GTGGGSFDF | nd | 0 of 6 |
| GFDLNEYGIS | VIYADGKRTAYSDSVK | GGNAGTFDV | 47 pM | 6 of 6 |
| GFDLNEYGIS | VIYADGMRTAYADDVK | GSNAGTFDL | 530 pM | 6 of 6 |
| GFDLNEYGIS | VIYADGRRTAYSDSVK | GEAAGTFDF | 800 pM | 6 of 6 |
| GFDLNEYGIS | VIYADGKRTAYTDSVK | GANAGTFDV | 390 pM | 6 of 6 |
| GFDLNEYGIS | VIYADGMRTVYADDVK | GNNAGTFDI | 2.4 nM | 6 of 6 |
| GFDLNEYGIS | VIYADGKRTAYTDSVK | GTNAGTFDM | 330 pM | 6 of 6 |
| GFALNEYGIS | VIYADGSRSAYTESVK | GVHNIDVNV | nd | 0 of 6 |
| GFDLNEYGIS | VIYADGRRTQYIDSVK | GKVAGTFDS | 680 pM | 6 of 6 |
| GFNLDEYGIS | VIYADGRRTAYSDSVK | GNVAGTFDV | 350 pM | 6 of 6 |
| GFDLNEYGVS | VIYADGQRTYYTESVK | GKFGDLLMA | 86 nM | 1 of 6 |
| GFDLNEYGIS | VIYADGVRTAYVDSVK | GNNAGTFDM | 260 pM | 6 of 6 |
| GFEIQEYGIS | VIYADGRRTAYAEQVK | GNMGGTFST | 3.1 nM | 6 of 6 |
| GFDLDEYGIS | VIYADGVRTAYADSVK | GNVAGTFDT | 460 pM | 5 of 6 |
| GFDLNEYGIS | VIYADGVRTAYADKVK | GNTAGTFDV | 100 pM | 6 of 6 |
| GFDLNEYGIS | VIYADGRRTYYADSVK | GENAGTFDQ | 1.9 nM | 6 of 6 |
| GFDLNEYGIS | VIYADGMRTVYSDSVK | GNVAGTFDI | 52 pM | 6 of 6 |
| GFDLSEYGIS | VIYADGRRTFYTDSVK | GETAGTFDE | 430 pM | 6 of 6 |
| GSKLDEYGIS | VIYADGKRSFYSNAVK | GGKAGGTTV | nd | 0 of 6 |
| GFDLDEYGIS | VIYADGRRTFYADKVK | GENAGTFDI | 990 pM | 6 of 6 |
| GMDLNEYGIS | VIYADGKRSYYVQDVK | GTNIGQGTD | nd | 0 of 6 |
| GFDLDEYGIS | VIYADGVRTAYSDSVK | GNTAGTFDI | 660 pM | 6 of 6 |
| GFILDEYGIS | VIYADGSRVFYADTVK | GLLGKLVVV | nd | 0 of 6 |
| GFDLDEYGIS | VIYADGMRTAYTDSVK | GNNAGTFDI | 480 pM | 6 of 6 |
| GFDLNEYGIS | VIYADGRRTFYADSVK | GEVAGTFDF | 340 pM | 6 of 6 |

The 6 strongest on average among those seen in every replicate, once more:

| CDR-H1 | CDR-H2 | CDR-H3 | Kd (apparent) | seen in |
|---|---|---|---|---|
| GFDLNEYGIS | VIYADGKRTAYSDSVK | GGNAGTFDV | 47 pM | 6 of 6 |
| GFDLNEYGIS | VIYADGMRTVYSDSVK | GNVAGTFDI | 52 pM | 6 of 6 |
| GFDLNEYGIS | VIYADGVRKAYADSVK | GNVAGTFDI | 82 pM | 6 of 6 |
| GFDLNEYGIS | VIYADGMRTAYVDSVK | GNTAGTFDL | 96 pM | 6 of 6 |
| GFDLNEYGIS | VIYADGVRTAYADKVK | GNTAGTFDV | 100 pM | 6 of 6 |
| GFDLDEYGIS | VIYADGKRTAYVDSVK | GNTAGTFDV | 160 pM | 6 of 6 |

In the paper, a design with two or fewer of six values counts as a poor binder. Of ten entries with the parent sequence, four were seen in most replicates (averages 2.2 nM to 240 nM), three in one and three in none, so single entries are noisy. As a blank, each scFv also met three strains without target: over all heavy chain designs, 1% of these pairings were detected, typically at 120 nM and seldom below 7.0 nM.